By UniProt entry, the sequences of proteins in these tests, tags left out. Where a name states a change or a piece, a line headed by the entry shows the natural chain unless it says otherwise.
UniProt P32745: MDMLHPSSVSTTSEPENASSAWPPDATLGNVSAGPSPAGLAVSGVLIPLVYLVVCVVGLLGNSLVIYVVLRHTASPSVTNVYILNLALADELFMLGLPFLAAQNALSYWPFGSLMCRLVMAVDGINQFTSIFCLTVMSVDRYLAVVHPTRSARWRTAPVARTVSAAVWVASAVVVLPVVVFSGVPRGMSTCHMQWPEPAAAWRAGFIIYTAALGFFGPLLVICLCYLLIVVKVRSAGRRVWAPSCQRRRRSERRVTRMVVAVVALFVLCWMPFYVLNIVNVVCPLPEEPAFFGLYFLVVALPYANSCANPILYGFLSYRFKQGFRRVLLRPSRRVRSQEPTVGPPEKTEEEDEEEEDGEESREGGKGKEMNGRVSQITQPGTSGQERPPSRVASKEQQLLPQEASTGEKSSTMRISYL

In ChEMBL document CHEMBL1134652, “N-Methyl scan of somatostatin octapeptide agonists produces interesting effects on receptor subtype specificity” (J Med Chem, 2001):

Species: Rattus norvegicus
Experiment: in vitro Agonist activity (inhibition of growth hormone release) on cultured rat pituitary cells
Format: functional, cell-based
Conditions: Pituitary gland cell
In short: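 Anterior pituitary cells from adult male rats were dispersed with trypsin/DNase and cultured 4–5 days at about 200 000 cells/well. Each dose was run in triplicate wells in medium 199 with 1% BSA and 1 nM GHRH-(1–29)NH2, for 3 h at 37 °C. GH in the medium was measured by double-antibody RIA.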

Row | Structure (SMILES) | IC50 [nM]
1 | C[C@@H](O)[C@H](NC(=O)[C@@H]1CSSC[C@H](NC(=O)[C@H](N)Cc2ccccc2)C(=O)N(C)[C@@H](Cc2ccccc2)C(=O)N[C@H](Cc2c[nH]c3ccccc23)C(=O)N[C@@H](CCCCN)C(=O)N[C@@H]([C@@H](C)O)C(=O)N1)C(N)=O | 7.29
2 | C[C@@H](O)[C@H](NC(=O)[C@@H]1CSSC[C@H](NC(=O)[C@@H](N)Cc2ccc(O)cc2)C(=O)N[C@@H](Cc2ccccc2)C(=O)N[C@H](Cc2c[nH]c3ccccc23)C(=O)N[C@@H](CCCCN)C(=O)N[C@@H]([C@@H](C)O)C(=O)N1C)C(N)=O | 41.2
3 | C[C@@H](O)[C@H](NC(=O)[C@@H]1CSSC[C@H](NC(=O)[C@@H](N)Cc2ccc(O)cc2)C(=O)N(C)[C@@H](Cc2ccccc2)C(=O)N[C@H](Cc2c[nH]c3ccccc23)C(=O)N[C@@H](CCCCN)C(=O)N[C@@H]([C@@H](C)O)C(=O)N1)C(N)=O | 103
4 | C[C@@H](O)[C@H](NC(=O)[C@@H]1CSSC[C@H](N(C)C(=O)[C@@H](N)Cc2ccc(O)cc2)C(=O)N[C@@H](Cc2ccccc2)C(=O)N[C@H](Cc2c[nH]c3ccccc23)C(=O)N[C@@H](CCCCN)C(=O)N[C@@H]([C@@H](C)O)C(=O)N1)C(N)=O | 11.9
5 | C[C@@H](O)[C@H](NC(=O)[C@@H]1CSSC[C@H](NC(=O)[C@H](N)Cc2ccccc2)C(=O)N[C@@H](Cc2ccccc2)C(=O)N(C)[C@H](Cc2c[nH]c3ccccc23)C(=O)N[C@@H](CCCCN)C(=O)N[C@@H]([C@@H](C)O)C(=O)N1)C(N)=O | 18.7
6 | CN[C@H](Cc1ccccc1)C(=O)N[C@H]1CSSC[C@@H](C(=O)N[C@H](C(N)=O)[C@@H](C)O)NC(=O)[C@H]([C@@H](C)O)NC(=O)[C@H](CCCCN)NC(=O)[C@@H](Cc2c[nH]c3ccccc23)NC(=O)[C@H](Cc2ccccc2)NC1=O | 0.32
7 | C[C@@H](O)[C@H](NC(=O)[C@@H]1CSSC[C@H](NC(=O)[C@H](N)Cc2ccccc2)C(=O)N[C@@H](Cc2ccccc2)C(=O)N[C@H](Cc2c[nH]c3ccccc23)C(=O)N(C)[C@@H](CCCCN)C(=O)N[C@@H]([C@@H](C)O)C(=O)N1)C(N)=O | 0.74
8 | CN[C@@H](Cc1ccc(O)cc1)C(=O)N[C@H]1CSSC[C@@H](C(=O)N[C@H](C(N)=O)[C@@H](C)O)NC(=O)[C@H]([C@@H](C)O)NC(=O)[C@H](CCCCN)NC(=O)[C@@H](Cc2c[nH]c3ccccc23)NC(=O)[C@H](Cc2ccccc2)NC1=O | 11.3

Biological target: Somatostatin receptor type 3 (Homo sapiens, UniProt P32745)
Experiment: Binding affinity was determined on cloned human somatostatin receptor-1 (hsst3)
Conditions: not given
In short: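 Membranes from transfected CHO-K1 cells expressing the human receptor subtype, incubated 30 min at 37 °C with 0.05 nM [125I]Tyr11-SRIF in 50 mM HEPES pH 7.4 with BSA, MgCl2, Trasylol, bacitracin and PMSF. Binding was stopped by filtration on PEI-soaked GF/C filters. Nonspecific binding was taken with 1.0 μM SRIF. Kd came from concentration-dependent displacement, given as mean ± SEM or a single experiment.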

Row | Structure (SMILES) | Kd [nM]
9 | CN[C@@H](Cc1ccc(O)cc1)C(=O)N[C@H]1CSSC[C@@H](C(=O)N[C@H](C(N)=O)[C@@H](C)O)NC(=O)[C@H]([C@@H](C)O)NC(=O)[C@H](CCCCN)NC(=O)[C@@H](Cc2c[nH]c3ccccc23)NC(=O)[C@H](Cc2ccccc2)NC1=O | 3.01
